Test results taken from patent US20250186623A1, “EXPRESSION SYSTEM FOR THE TREATMENT OF CANCER” (FUNDACION PARA LA INVESTIGACION MEDICA APLICADA, priority 2022, published 2025).

System: B16 cells transduced with AAV8-ISREx4-LucmiR122T
Test: Radiation and IFN signaling on activation of the ISREx4 promoter (luciferase)
Assay type: cell-based, murine
Method: The ISREx4 promoter responds to interferon downstream signaling. The following experiment investigates whether exogenously added IFN-α, IFN-β or IFN-γ activates the promoter and whether this addition has a synergistic effect with radiation of cells treated with AAV8-ISREx4-LucmiR122T.
To this end, B16 cells received 8 Gy or 0 Gy as described above and then were transduced with AAV8-ISREx4-LucmiR122T (1×10^5 viral genomes/cell) and 48 h later 1,000 IU of either IFN-α, IFN-β or IFN-γ were added to the culture and luciferase activity was measured 48 h later as described above.

B1: IFN-β: exogenously added interferon, 1,000 IU (protein, UniProt P01574 22-187, looked up)
Interferon beta: MSYNLLGFLQRSSNFQCQKLLWQLNGRLEYCLKDRMNFDIPEEIKQLQQFQKEDAALTIYEMLQNIFAIFRQDSSSTGWNETIVENLLANVYHQINHLKTVLEEKLEKEDFTRGKLMSSLHLKRYYGRILHYLKAKEYSHCAWTIVRVEILRNFYFINRLTGYLRN
Question: Which luciferase activity (1,000 IU interferon alone (0 Gy)) does the source give for B1 here?
Answer: significantly increased luciferase activity

Question: And the luciferase activity (1,000 IU interferon together with radiation (8 Gy))?
Answer: induced luciferase activity dramatically
